Results: patent publication US20100216706A1, “Ghrelin Protects Substantia Nigra Dopamine Neurons” (priority 2007, published 2010)

Protein sequences, listed by entry. Tags and fused reporters are not part of them. Lines headed by an entry give the natural chain unless they say otherwise; changes in a name come on top.
UniProt O08725, whole entry: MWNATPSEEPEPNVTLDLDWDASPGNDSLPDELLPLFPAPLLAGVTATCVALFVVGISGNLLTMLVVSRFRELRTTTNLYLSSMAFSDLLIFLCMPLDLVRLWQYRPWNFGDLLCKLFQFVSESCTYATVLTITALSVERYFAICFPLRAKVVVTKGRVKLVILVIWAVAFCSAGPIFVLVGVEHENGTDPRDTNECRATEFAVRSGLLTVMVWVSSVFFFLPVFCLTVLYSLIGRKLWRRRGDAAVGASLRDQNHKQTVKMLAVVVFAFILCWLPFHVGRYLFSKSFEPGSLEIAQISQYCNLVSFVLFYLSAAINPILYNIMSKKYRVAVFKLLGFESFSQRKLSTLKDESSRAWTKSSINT
UniProt Q9UBU3: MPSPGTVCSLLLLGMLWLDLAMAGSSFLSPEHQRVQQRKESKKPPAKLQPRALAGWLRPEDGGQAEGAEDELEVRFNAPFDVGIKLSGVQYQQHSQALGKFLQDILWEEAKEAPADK

Experiments:
[1] = test system: UCP2-dependent mitochondrial respiration; assay: Uncoupled mitochondrial respiration in pooled midbrain of UCP2 wt or ko mice; type: in vivo; settings: ghrelin IP 30 nmol, 3 hours; ko saline 3 17.0±12.7
Description: Mitochondrial respiration: The ability of ghrelin to promote mitochondrial respiration was examined in mitochondria isolated from midbrain of ghrelin-treated rats (30 nmol) three hours after injection. Rats were used as the mitochondrial yield after isolation is much higher than the yield from mice. Mitochondrial respiration was also examined in the pooled midbrain of UCP2 ko and wt mice (3 pooled brains), 3 hours after ghrelin injection (IP 30 nmol).
Mitochondria were pooled from the SN-VTA (4 animals=1, total n=4) and isolated by differential centrifugation. […] Protein concentrations were determined with a BCA protein assay kit (Pierce, Rockford, Ill., USA).
Mitochondrial respirations were assessed using a Clark-type oxygen electrode (Hansatech Instruments, Norfolk, England) at 37° C. with pyruvate and malate (5 mM and 2.5 mM) as oxidative substrates in respiration buffer (215 mM Mannitol, 75 mM sucrose, 0.1% fatty acid free BSA, 20 mM Hepes, 2 mM MgC1, 2.5 mM KH2PO4, pH adjusted to 7.2 with KOH). Following the addition of ADP and oligomycin, UCP-mediated proton conductance was measured as increased fatty acid-induced respiration (Echtay et al., 2002), which was then compared to state 4 respiration induced by oligomycin, an inhibitor of H^+ transporting ATP synthase.
It was determined that GHSRs are expressed on UCP2 neurons in the SNpc. […]

[2] = biological target: T1, substantia nigra pars compacta (SNpc) cells / GHSR (Rattus norvegicus, UniProt O08725); assay: Biotinylated ghrelin binding on brain slices containing the SNpc
T1 construct: saline-perfused rat brains (n=4) were removed, sectioned, and immediately reacted with biotinylated ghrelin; from tissue; host or cells: wild-type rat brain sections (100 µm) containing the substantia nigra pars compacta
Excerpt: Biotinylated ghrelin binding in the SN: To test whether ghrelin binds to cells in the substantia nigra, 100 μm sections containing these regions were processed for binding studies as described previously (Cowley et al., 2003, Neuron 37: 649-61).
Briefly, saline-perfused rat brains (n=4) were removed, sectioned, and immediately reacted with biotinylated ghrelin (1M; Phoenix Pharmaceuticals, Belmont, Calif.) alone or in combination with an equal amount of unlabeled (cold) ghrelin (1M; Phoenix Pharmaceuticals) for 20 minutes at 4° C. Sections were fixed with 4% paraformaldehyde and reacted with avidin-Texas red and analyzed using a Zeiss microscope equipped with fluorescent filters.
To study ghrelin binding on rat brain slices containing the substantia nigra pars compacta (SNpc), brain sections were reacted with biotinylated ghrelin.

Molecule | FCCP-driven respiration, UCP2 ko mice [1] | Biotinylated ghrelin binding with unlabelled ghrelin added ([2]; equal amount of unlabelled ghrelin in the incubation solution) | Biotinylated ghrelin binding in the SNpc ([2]; rat brain sections, biotinylated ghrelin alone)
CN1CC=C(c2ccccc2)CC1 [MPTP, 1-methyl-4-phenyl-1,2,5,6 tetrahydropyridine] | 363.5±3.8 |  | 
Biotinylated ghrelin: biotinylated ghrelin from Phoenix Pharmaceuticals used for binding studies (GSSFLSPEHQRVQQRKESKKPPAKLQPR; Ghrelin-28 biotin; UniProt Q9UBU3 24-51, looked up) |  | No binding was observed | binding was observed throughout the SNpc
